pEC50: −log10 of the molar value.
Biological target: human AMPK (full-length γ1, β1 and α1 subunits) (Homo sapiens (Human), UniProt Q13131+Q9Y478)
Test: AMPK in vitro biochemical assay (33P-based, SAMS peptide, PP2A dephosphorylation)

By UniProt entry, the sequences of proteins in these tests, tags left out.
UniProt Q13131, whole entry: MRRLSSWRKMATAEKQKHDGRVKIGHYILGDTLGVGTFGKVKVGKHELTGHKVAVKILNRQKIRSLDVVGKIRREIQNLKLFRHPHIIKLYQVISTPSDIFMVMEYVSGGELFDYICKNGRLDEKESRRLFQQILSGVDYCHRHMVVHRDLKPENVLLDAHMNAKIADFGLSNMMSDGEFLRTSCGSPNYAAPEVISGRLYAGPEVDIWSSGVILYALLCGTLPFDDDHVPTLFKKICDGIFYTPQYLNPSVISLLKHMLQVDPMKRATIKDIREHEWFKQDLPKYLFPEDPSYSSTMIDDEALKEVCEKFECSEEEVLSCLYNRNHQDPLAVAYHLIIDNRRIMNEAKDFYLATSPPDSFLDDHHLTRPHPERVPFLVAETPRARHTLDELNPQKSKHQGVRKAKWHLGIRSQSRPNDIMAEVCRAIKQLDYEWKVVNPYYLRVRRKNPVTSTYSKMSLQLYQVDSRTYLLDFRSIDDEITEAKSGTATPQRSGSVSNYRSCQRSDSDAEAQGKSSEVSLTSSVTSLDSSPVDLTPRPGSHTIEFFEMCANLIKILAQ
UniProt Q9Y478, whole entry: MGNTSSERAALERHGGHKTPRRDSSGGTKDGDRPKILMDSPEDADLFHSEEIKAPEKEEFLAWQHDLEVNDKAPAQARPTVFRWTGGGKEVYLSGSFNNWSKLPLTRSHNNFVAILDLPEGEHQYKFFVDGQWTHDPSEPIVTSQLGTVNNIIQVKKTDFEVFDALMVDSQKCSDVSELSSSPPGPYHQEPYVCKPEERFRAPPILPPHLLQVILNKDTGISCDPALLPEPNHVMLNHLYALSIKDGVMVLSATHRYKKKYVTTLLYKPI
UniProt P54619, whole entry partner: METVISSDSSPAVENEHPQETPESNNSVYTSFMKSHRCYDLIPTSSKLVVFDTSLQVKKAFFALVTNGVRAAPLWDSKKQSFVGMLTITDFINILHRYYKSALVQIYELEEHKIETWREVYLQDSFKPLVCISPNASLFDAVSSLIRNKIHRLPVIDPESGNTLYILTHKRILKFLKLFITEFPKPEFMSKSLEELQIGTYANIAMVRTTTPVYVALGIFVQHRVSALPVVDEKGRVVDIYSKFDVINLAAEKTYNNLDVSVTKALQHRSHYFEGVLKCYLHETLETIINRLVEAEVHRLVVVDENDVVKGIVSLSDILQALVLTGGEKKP

COc1cc(-c2cc3c(C(=O)O)c[nH]c3cc2Cl)ccc1C(C)(C)CO
pEC50 (activation of phosphorylated AMPK, 33P-ATP, SAMS peptide, PP2A treatment, 4-parameter fit): 7.57 | Maximum (counts as % of positive control wells (enzyme, allosteric activator or AMP, PP2A and substrate)): 98%
